Results: ChEMBL document CHEMBL1154816, “Potent and selective neuronal nitric oxide synthase inhibitors with improved cellular permeability” (Bioorg Med Chem Lett, 2010)

Assays:
[1] = Selectivity ratio of Ki for mouse recombinant iNOS to Ki for rat recombinant nNOS
[2] = Selectivity ratio of Ki for bovine recombinant eNOS to Ki for rat recombinant nNOS

Cc1cc(N)nc(CC2CNCC2OCCNCC(F)c2cccc(F)c2)c1 (racemic)
Ratio Ki [1]: 360
Ratio Ki [2]: 1000
